Screening data deposited in PubChem BioAssay by ICCB-Longwood Screening Facility, Harvard Medical School.
GIV Gai3 FP: inhibitors of GIV GBA-motif binding to rat Galpha-i3; P08753; Galpha-i3/FITC-GIV peptide fluorescence polarization, 90 min; stronger effect = lower value; scaled: aluminum fluoride 0%, vehicle 100%; percent of control (FP), % (test concentration not listed); 210,000 tested, 0.42% active; AID 1224905;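 active = replicate mean at 85% of control or lower, very high polarization wells dropped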;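 note: wells of about 15 µL received 100 nL stock; the first replicate is given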
GIV-Gai FP conf: inhibitors of GIV peptide binding to Galpha-i3, confirmation, biochemical, fluorescence polarization, FITC-GIV peptide, rat Galphai3. shares compounds with GIV Gai3 FP. hits give low values. fluorescence polarization, mP at 100 µM. 580 compounds, 38% hits. AID 1259350, 2017;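 active = inhibition score of 15 or more, meaning 100 minus mean polarization as percent of control over three replicates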;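 note: lower mP means peptide displaced from Galphai3 so more inhibition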
GIV-Gai AS conf: inhibitors of GIV binding to Galpha-i3, confirmation, orthogonal assay for GIV-Galpha-i inhibitor project, biochemical, AlphaScreen, His-GIV, GST-Galphai3. purified proteins, 90 min; hits give low values. AID 1259351, 2017. shares compounds with GIV Gai3 FP. 580 compounds, 39% hits. AlphaScreen counts at 100 µM;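 active = inhibition score at or above a set limit, where the score is 100 minus the three-replicate mean percent of control signal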
* hit, by the source's call. Many of the other results were omitted from the sample, so hits are more common in it than they were.

SMILES	GIV Gai3 FP	others
Cn1nc(C(=O)N2CCN(c3ccc(Cl)cc3)CC2)c2c1-c1ccccc1SC2	100
O=C(Cc1ccc(Cl)cc1)NCCn1c(C(F)(F)F)nc2cccnc21	108
O=C(N1CCC(NS(=O)(=O)c2ccc(Cl)cc2)CC1)C1(c2ccccc2)CC1	100
O=C(NCC(c1cccnc1)N1CCN(c2ccccc2)CC1)C1CC1 (configuration not stated)	110
Cn1c(=O)n(C)c2cc(/C=C(/C#N)C(=O)NCc3ccco3)ccc21	96
CCOc1ccc2ccccc2c1/C=C(\C#N)C(=O)NCc1ccco1	100
N#C/C(=C\c1c(Oc2ccccc2)nc2ccccn2c1=O)C(=O)NCc1ccco1	81*	GIV-Gai FP conf=76;GIV-Gai AS conf=31816
O=C(/C=C/c1ccccc1)Nc1cc(C(=O)Nc2ccc3c(c2)OCCO3)ccc1N1CC2CC(C1)c1cccc(=O)n1C2 (configuration not stated)	105
CCc1ccc(NC(=O)CSc2n[nH]c(=O)c3cc(-c4ccc(OC)cc4)nn23)cc1	101
O=C1Nc2cc(Cl)ccc2Oc2ccc(S(=O)(=O)N3CCCC3)cc21	102
CCCCc1nnc2sc(COc3ccccc3Cl)nn12	108
Cc1ccc(N2C(=O)N(Cc3cc(=O)n4ccccc4n3)c3ccccc3S2(=O)=O)cc1	102
CCc1ccccc1N1C(=O)N(Cc2cc(=O)n3ccccc3n2)c2ccccc2S1(=O)=O	87	GIV-Gai FP conf=82;GIV-Gai AS conf=31171
Cc1cccc(N2C(=O)N(Cc3cc(=O)n4ccccc4n3)c3ccccc3S2(=O)=O)c1	102
CCCCc1cnc2c(c1SC(C)C)c(=O)n(C)c(=O)n2C	101
COc1ccccc1-n1nnnc1SCC(=O)NC1CCCC1	103
O=C(O)CSCC(=O)NC1Cc2ccccc2C1	99
Cn1nnnc1SCC(=O)NC1Cc2ccccc2C1	87	GIV-Gai FP conf=69;GIV-Gai AS conf=47713
Cc1ccc2cc3cc(C(=O)NCCCN4CCCCCC4)sc3nc2c1	102
Cc1ccc([N+](=O)[O-])c2c1NC(c1ccc(Cl)cc1Cl)C1CC=CC21 (configuration not stated)	101
COc1ccc(/C=c2\sc3nc(-c4ccccc4)c(-c4ccccc4)n3c2=O)c(OC)c1OC	88	GIV-Gai FP conf=68;GIV-Gai AS conf=45907
COc1ccc(/C=c2\sc3nc(-c4ccccc4)c(-c4ccccc4)n3c2=O)cc1OC	106
O=c1/c(=C/c2cccs2)sc2nc(-c3ccccc3)c(-c3ccccc3)n12	119
CN(Cc1nc(-c2ccc(C(F)(F)F)cc2)no1)C1CS(=O)(=O)CC1O (configuration not stated)	104
COC(=O)c1ccc2[nH]c(C)cc(=O)c2c1	118
Cc1ccc(NC(=O)c2ccc3[nH]c(C)cc(=O)c3c2)cc1	86	GIV-Gai FP conf=80;GIV-Gai AS conf=29554
CCOc1ccc(NC(=O)c2ccc3[nH]c(C)cc(=O)c3c2)cc1	98
NS(=O)(=O)c1cccnc1N1CCSCC1	109
CCOc1cc(C=C2C(=O)NC(=S)NC2=O)cc(Cl)c1OCCOc1ccc(C)cc1	110
COc1cccc2c(=O)c(NC(=O)NCCN3CCOCC3)c[nH]c12	106
Cc1nc(-c2cnccn2)[nH]c(=O)c1C	102
COC(=O)CSc1cccc2c1C(=O)CC2c1ccccc1 (configuration not stated)	107
COC(=O)CSc1ccc2c3c(cccc13)C(=O)c1ccccc1-2	68*	GIV-Gai FP conf=22*;GIV-Gai AS conf=45087
COC(=O)c1cccc2c1C(=O)c1ccccc1-2	102
COc1ccc(-n2c3c(cc(C(=O)NCCc4ccc(OC)c(OC)c4)c2=O)C(=O)CC(C)(C)C3)cc1	103
CC(=O)Oc1ccc([N+](=O)[O-])cc1/C=C1\Sc2ccccc2C1=O	103
COc1cc(Br)cc(/C=C2\Sc3ccccc3C2=O)c1O	104
CC(=O)O/N=C1\Sc2ccccc2C1=O	68*	GIV-Gai FP conf=66;GIV-Gai AS conf=29965*
Cc1ccccc1N1C(=O)/C(=C/c2ccc(Br)cc2)C=C1c1ccccc1	114
On1c2c(c3c4nonc4ccc31)CCCC2	50*	GIV-Gai FP conf=42*;GIV-Gai AS conf=10129*
CCOC(=O)COn1c(C)c(C(=O)OCC)c2c3nonc3ccc21	103
COn1c2c(c3c4nonc4ccc31)CCCC2	102
Brc1ccc(Nc2nc(-c3ccccc3)cs2)nc1	96
COc1cccc2sc(N(CCCN(C)C)C(=O)c3ccccc3Cl)nc12	111
O=C(NC1CCCCC1)c1cccc(-n2c(=S)[nH]c3cc(Cl)ccc3c2=O)c1	104
COc1ccc(NC(=O)Nc2cc3c(cc2N2CCCC2)n(C)c(=O)n3C)c(OC)c1	95
Cc1c2c(n3c(nc4ccccc43)c1C#N)N(C1CCCC1)CC2	101
Cc1c2c(n3c(nc4ccccc43)c1C#N)N(CCN1CCOCC1)CC2	97	GIV-Gai FP conf=76;GIV-Gai AS conf=30989
CCc1c(C)c(C#N)c2nc3ccccc3n2c1N1CCN(CCO)CC1	105
Cc1cccc(C(=O)NCc2nnc(SCC(=O)c3ccccc3)n2C)c1	102
COc1ccc(OC)c(NC(=O)COc2cc(C)c3c(C)nn(-c4cccc(Cl)c4C)c3n2)c1	101
CCN(CC)C(=S)Nc1ccc2nsnc2c1	66*	GIV-Gai FP conf=27*;GIV-Gai AS conf=10807*
COc1cccc(NC(=O)c2ccc3nsnc3c2)c1	101
CCN(CC)C(=S)Oc1ccccc1C(=O)Nc1ccc(Cl)c(Cl)c1	99
Fc1ccc(NC(=S)N2CCCCC2)cc1	102
S=C(Nc1ccc2nsnc2c1)N1CCCC1	81*	GIV-Gai FP conf=23*;GIV-Gai AS conf=11675*
O=c1c2cc(NC(=S)N3CCCCCC3)ccc2nc2n1CCCCC2	102
O=C(OCCN(C1=NS(=O)(=O)c2ccccc21)c1ccccc1Cl)C1CC(=O)N(c2ccccc2)C1 (configuration not stated)	108
COCCNC(=O)C(C)N1C(=O)CCCc2ccccc21 (configuration not stated)	108
Cc1ccc(NC(=O)C(=O)NCCN2CCN(Cc3ccccc3F)CC2)cc1Cl	93

Further records follow:
SMILES	GIV Gai3 FP	others
O=C(CCn1c(=O)c2cccn2c2cccnc21)N1CCN(c2ccccn2)CC1	104
c1ccc(-c2[nH]ncc2CN2CCN(c3ccccn3)CC2)cc1	106
O=c1[nH]c2cc3c(cc2cc1CN(CCO)C(=S)Nc1cccc(Cl)c1)OCO3	98
Cc1ccc2oc(-c3nnc(C(=O)NCCc4sccc4C)o3)c(C)c2c1	106
O=C(NCc1ccc(Cl)cc1)C1CCCN(c2nn3c(=O)c4c(nc3s2)CCCC4)C1 (configuration not stated)	106
CCn1cc2c(n1)-c1c(oc(C(=O)Nc3ccc(Br)cc3F)c1C)CC2	96
CCn1cc2c(n1)-c1c(oc(C(=O)Nc3ccc(Cl)cc3)c1C)CC2	81*	GIV-Gai FP conf=54;GIV-Gai AS conf=16212*
CCn1cc2c(n1)-c1c(oc(C(=O)NCc3cccnc3)c1C)CC2	83*	GIV-Gai FP conf=53;GIV-Gai AS conf=10636*
COCCNC(=O)Cn1cc2c(n1)-c1c(oc(C(=O)N3CCCC3)c1C)CC2	70*	GIV-Gai FP conf=66*;GIV-Gai AS conf=26569

Entries above containing a nitro group on carbon, in the order listed:
SMILES	GIV Gai3 FP	others
Cc1ccc([N+](=O)[O-])c2c1NC(c1ccc(Cl)cc1Cl)C1CC=CC21 (configuration not stated)	101
CC(=O)Oc1ccc([N+](=O)[O-])cc1/C=C1\Sc2ccccc2C1=O	103

No new results follow: an excerpt of the list.
SMILES	GIV Gai3 FP	others
c1ccc(-c2[nH]ncc2CN2CCN(c3ccccn3)CC2)cc1	106
O=c1[nH]c2cc3c(cc2cc1CN(CCO)C(=S)Nc1cccc(Cl)c1)OCO3	98
Cc1ccc2oc(-c3nnc(C(=O)NCCc4sccc4C)o3)c(C)c2c1	106
O=C(NCc1ccc(Cl)cc1)C1CCCN(c2nn3c(=O)c4c(nc3s2)CCCC4)C1 (configuration not stated)	106
CCn1cc2c(n1)-c1c(oc(C(=O)Nc3ccc(Br)cc3F)c1C)CC2	96
